This experiment concerns the target human P2X3 (Homo sapiens, UniProt P56373). The experiment is described as follows: Intracellular Calcium Measurement to Assess Antagonist Affinity (FLIPR, Fluo-4). The note with it: Intracellular Calcium Measurement to Assess Antagonist Affinity assay; agonist α,β-meATP at EC50. The source says:
Generation of a Human P2X3 and P2X2/3 Stable Cell Line—Human P2X3 receptor cDNA (Accession number NM_002559) was subcloned as a 5′XhoI and 3′HindIII fragment into the expression vector pcDNA5/FRT (Invitrogen). Human P2X2 receptor cDNA (Accession number NM_174873) was subcloned as a 5′EcoRI and 3′NotI fragment into the expression vector pIRESneo2 (BD Biosciences Clontech). The human P2X3 expression construct was transfected using Lipofectamine 2000 (Invitrogen) into Flp-in—293 cells (Invitrogen) according to the manufacturer's directions. Cells positive for flp-mediated recombination of rhesus P2X3 were selected using 150 μg/ml hygromycin. […] Intracellular Calcium Measurement to Assess Antagonist Affinity—A fluorescent imaging plate reader (FLIPR; Molecular Devices) was used to monitor intracellular calcium levels using the calcium-chelating dye Fluo-4 (Molecular Probes). The excitation and emission wavelengths used to monitor fluorescence were 488 nm and 530 nm, respectively. […] During this period fluorescence data is collected at 3 sec intervals followed by 10 sec intervals. […] Following agonist addition fluorescence was measured at 5 sec intervals and analyzed based on the increase in peak relative fluorescence units (RFU) compared to the basal fluorescence. […]

Amino acid sequences for entries named in this document (tags omitted).
UniProt P56373, whole entry: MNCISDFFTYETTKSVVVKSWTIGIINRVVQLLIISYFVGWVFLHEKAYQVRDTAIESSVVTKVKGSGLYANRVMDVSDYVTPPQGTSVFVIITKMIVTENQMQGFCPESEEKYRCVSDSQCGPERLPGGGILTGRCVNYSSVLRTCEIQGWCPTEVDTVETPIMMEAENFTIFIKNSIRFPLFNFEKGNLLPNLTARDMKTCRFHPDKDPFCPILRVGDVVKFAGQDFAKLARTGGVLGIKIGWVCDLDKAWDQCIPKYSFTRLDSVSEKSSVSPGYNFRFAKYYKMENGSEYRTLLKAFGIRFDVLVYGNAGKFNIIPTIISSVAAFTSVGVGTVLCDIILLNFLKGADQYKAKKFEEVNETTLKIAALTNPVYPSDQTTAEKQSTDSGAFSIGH

The structures appear in SMILES notation. pIC50: −log10 of the molar value.

One may read the pIC50 as the IC50 on a negative log10 scale, so that one unit is a factor of ten. Consider `Cc1noc([C@@H](C)NC(=O)c2cc3c(-c4ccc(F)cc4F)n(CCO)nc3s2)n1`, for which the pIC50 was 7.20.

The values above are taken from patent US8569512B2.
